Results taken from patent publication US7834152B2, “Antagonists of interleukin-15” (Beth Israel Deaconess Medical Center, Inc., priority 1996, dated 2010).
Entries after “also recorded” stand apart in the source; their conditions may differ.

Assays:
[1] = tested on: PHA-activated human PBMCs; experiment: [3H]-TdR proliferation assay, PHA-activated human PBMCs; type: cell-based; conditions: PHA-activated PBMCs re-stimulated with reagent
Experimental: Peripheral blood mononuclear cells (1×10^6/ml) were stimulated with PHA (2 μg/ml) for 72 hours at 37° C. in RPMI-1640 medium supplemented with 10% FCS, penicillin, and streptomycin, as described above.
In the next series of experiments, the FLAG-HMK-IL-15 fusion protein was tested in order to determine whether it could function as a biologically active growth factor. […] Thus, FLAG-HMK-IL-15 is a biologically active growth factor that requires expression of IL-2Rβ chains upon target cells in order to stimulate cellular proliferation.

[2] = tested on: IL-2Rαγ+ BAF-BO3 cells that express mutant S− IL-2Rβ subunit; experiment: Proliferation assay, BAF-BO3 cells expressing mutant S− IL-2Rβ subunit; type: cell-based, murine; conditions: IL-2Rβ lacking serine-rich region (S−), 38 hours
Experimental: FIGS. 12A and 12B is a pair of graphs depicting the proliferative response of BAF-BO3 cells that express the wild-type IL-2Rβ subunit (WT, ▴ - - - ▴), the mutant IL-2Rβ subunit that lacks serine-rich region S^−, ▪ - - - ▪), or a control vector (V, ● - - - ●). The cells were incubated with IL-2 (upper graph) or IL-15 (lower graph) for 38 hours and a standard proliferation assay was performed. Error bars indicate the mean±standard deviation.
The hypothesis that elements of the IL-2Rβ chain that are required for IL-2 signal transduction are also required for IL-15 signal transduction was tested. […] Therefore, the ability of IL-15 to induce the proliferation of IL-2Rαγ^+BAF-BO3 cells that express either the wild-type IL-2Rβ subunit or a mutant IL-2Rβ protein that lacks the serine rich region (S^−).

[3] = tested on: BAF-BO3 cells transfected with pRcCMV-IL-2Rβ; experiment: [3H]-TdR proliferation assay, BAF-BO3 cells expressing human IL-2Rβ; type: cell-based, murine; conditions: cells expressing wild-type human IL-2Rβ subunit
Experimental: The BAF-BO3 cell line is an IL-3-dependent, murine pro-B cell line. A BAF-BO3 cell line that was pre-selected for high expression of the IL-2Rα subunit was kindly provided by T. Taniguchi (Osaka, Japan; Hatakeyama et al., Cell 59:837, 1989). BAF-BO3 cells were transfected with vector control (pRcCMV-0) or cDNA encoding the human IL-2Rβ subunit cloned into pRcCMV (pRcCMV-IL-2Rβ), by electroporation at 350 volts and 500 μFarads using 20 μg of ScaI linearized plasmid. Transfected cells were selected in the presence of 1 mg/ml G418 and tested for the expression of the IL-2Rβ subunit by fluorescence activated cell sorting (FACS) analysis as described (Maslinski et al., Int. Immunol. 4:509, 1992; Hataleyama et al., Cell 59:837, 1989).
IL-3 dependent BAF-BO3 cells, which constitutively express the IL-2Rγ subunit, were transfected with a control pRcCMV construct (pRcCMV-0) or a pRcCMV construct containing cDNA encoding the full-length human IL-2Rβ_subunit and the neo^r gene (pRcCMV-IL-2Rβ). G418 resistant clones were then selected. Cells that were selected in this way were used to test the biological activity of FLAG-HMK-IL-15. […] The BAF-BO3 cells were then harvested and cell-associated radioactivity was measured by scintillation counting as described above. […]

Substance: IL-2: recombinant human IL-2 obtained from Hoffman-La Roche
- cell proliferation ([3H]-TdR incorporation) [1]: proliferate in response to
- cell proliferation [2]: neither cytokine is able to stimulate
- cell proliferation ([3H]-TdR incorporation) [3]: stimulates proliferation; also recorded: stimulate the proliferation; also recorded: stimulated cellular proliferation
